# Apparent affinities of Ab-91 variants for a coronavirus HR2 peptide

Target peptide (SARS-CoV-2 spike, HR2 region): PDVDLGDISGINAS

Ab-91 is the parent antibody, in scFv form: VL, then a (GGGGS)3 linker, then VH. The light chain is unchanged in all variants.
VL: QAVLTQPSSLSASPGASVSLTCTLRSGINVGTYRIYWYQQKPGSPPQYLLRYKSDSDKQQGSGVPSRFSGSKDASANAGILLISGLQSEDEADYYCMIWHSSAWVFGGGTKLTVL
VH: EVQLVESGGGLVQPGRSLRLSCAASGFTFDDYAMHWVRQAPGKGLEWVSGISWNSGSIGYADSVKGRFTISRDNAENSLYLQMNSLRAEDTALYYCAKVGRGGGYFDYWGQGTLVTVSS

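The starting antibody came from a phage panning campaign against this peptide. Variants in AAYL51 differ from the parent at up to three CDR positions; double and triple changes were sampled at random. The assay is AlphaSeq: two haploid yeast populations carry antibody and antigen on their surface. Binding brings cells together so that they mate, and sequencing counts the barcode pairs among the diploids. A regression on co-assayed BCL2-family reference pairs converts the normalised counts of each replicate to an apparent Kd. Each pool was mated in three replicate cultures.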

Positions count from residue 1 of the parent VH; Y32P puts P in place of Y. Every variant below is changed at G100 of the VH (sequential numbering). The read-out is the apparent dissociation constant on a log10 scale (nM): the lower, the stronger. A mean of the replicates is given; it leaves out those without a signal. "nd" marks a missing value. The strain was present, yet no cells mated with the target were sequenced in any replicate, which points to weak or no binding. Empty control strains, which show no peptide, gave a signal in 21% of pairings with library AAYL51; the median was 4.54 and 95% of these signals were weaker than 3.26. No background was subtracted. For reference, the parent read 1.86 as the reference entry and 0.88 as a member of this library.

For Y32P+G100C, the assay gave 4.45 (3 of 3 replicates). The variant T28S+G50P+G100H gave nd (0 of 3 replicates). With D31F+G100T+G103Y the result was 4.52 (1 of 3 replicates). The variant G100N+R101D showed 0.97 (3 of 3 replicates). With G100C the result was 4.04 (1 of 3 replicates). The variant D31V+G100D gave 3.70 (1 of 3 replicates). For G26I+F27T+G100A, the assay gave nd (0 of 3 replicates). The variant G59D+G100H+F106D gave 4.69 (3 of 3 replicates).

The variant F27R+S57F+G100T gave nd (0 of 3 replicates). The variant M34A+G100I+F106I gave nd (0 of 3 replicates). With V64P+G100W the result was 6.01 (1 of 3 replicates). The variant G26M+S63I+G100N showed nd (0 of 3 replicates). The variant F27L+S52K+G100D showed 5.38 (3 of 3 replicates). The variant G26K+Y32N+G100R gave 3.30 (1 of 3 replicates). For I58F+G100I+G104P, the assay gave 1.82 (3 of 3 replicates). For G50P+G100D+D107G, the assay gave 3.83 (1 of 3 replicates).

The variant G100M gave 1.69 (3 of 3 replicates). For G50A+A61K+G100Y, the assay gave 6.18 (1 of 3 replicates). With A33P+G56N+G100C the result was nd (0 of 3 replicates). The variant A33H+I58S+G100T gave nd (0 of 3 replicates). The variant F27K+K65M+G100R gave nd (0 of 3 replicates). For N54H+V99S+G100P, the assay gave 5.18 (1 of 3 replicates). The variant Y32W+G100C+G103S gave 2.97 (3 of 3 replicates). The variant M34T+K65T+G100K showed nd (0 of 3 replicates).

The variant F27T+D31Q+G100F gave 3.17 (2 of 3 replicates). With S52G+V99W+G100A the result was 4.74 (3 of 3 replicates). For A61C+G100I+R101Y, the assay gave nd (0 of 3 replicates). For S55T+V99R+G100R, the assay gave 2.41 (3 of 3 replicates). The variant S55N+G100E showed 5.47 (2 of 3 replicates). The variant F27C+A33S+G100T showed 1.97 (3 of 3 replicates). For G26Q+Y60M+G100Y, the assay gave nd (0 of 3 replicates). For F27L+S63Q+G100L, the assay gave nd (0 of 3 replicates).

Top 2 of the variants detected in all replicates, tightest first:

changes	mean, log10 nM	replicates with signal
G100N+R101D	0.97	3 of 3
G100M	1.69	3 of 3

Values reported by Engelhart et al. 2022, doi:10.1038/s41597-022-01779-4 (FLAb copy).